Reference: PMC3781062 (PLoS ONE, 2013)

Amino acid sequences for entries named in this document (tags omitted).
UniProt P05177, whole entry: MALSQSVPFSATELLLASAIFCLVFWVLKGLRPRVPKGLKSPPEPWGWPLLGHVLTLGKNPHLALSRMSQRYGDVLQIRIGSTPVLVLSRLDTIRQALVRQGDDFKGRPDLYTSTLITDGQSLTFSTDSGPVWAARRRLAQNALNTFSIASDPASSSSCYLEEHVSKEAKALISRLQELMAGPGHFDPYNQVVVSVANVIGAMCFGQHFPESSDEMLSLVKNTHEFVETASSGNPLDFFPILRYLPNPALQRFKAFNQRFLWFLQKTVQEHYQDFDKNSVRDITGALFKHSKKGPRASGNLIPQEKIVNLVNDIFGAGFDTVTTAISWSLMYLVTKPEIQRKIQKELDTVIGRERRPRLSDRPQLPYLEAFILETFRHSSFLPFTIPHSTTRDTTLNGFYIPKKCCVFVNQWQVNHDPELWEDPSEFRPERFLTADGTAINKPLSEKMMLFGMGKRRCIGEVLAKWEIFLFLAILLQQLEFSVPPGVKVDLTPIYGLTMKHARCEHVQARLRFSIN

Biological target: CYP1A2 (Homo sapiens, UniProt P05177)
Assay type: in vitro ADME
Conditions: α-naphthoflavone 5 µM; recombinant CYP1A2

## O=c1cc(-c2ccccc2)oc2c1ccc1ccccc12 [α-naphthoflavone]
  8-MOP metabolism in presence of inhibitor: 34 % of control levels
